From PMC3164469

Protein sequences, listed by entry. Tags and fused reporters are not part of them. Lines headed by an entry give the natural chain unless they say otherwise; changes in a name come on top. Residues count along the entry.
UniProt Q02308, 232-358: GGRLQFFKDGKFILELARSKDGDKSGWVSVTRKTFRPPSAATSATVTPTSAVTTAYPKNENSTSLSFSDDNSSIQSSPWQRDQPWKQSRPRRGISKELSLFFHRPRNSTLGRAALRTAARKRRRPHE
UniProt P28159: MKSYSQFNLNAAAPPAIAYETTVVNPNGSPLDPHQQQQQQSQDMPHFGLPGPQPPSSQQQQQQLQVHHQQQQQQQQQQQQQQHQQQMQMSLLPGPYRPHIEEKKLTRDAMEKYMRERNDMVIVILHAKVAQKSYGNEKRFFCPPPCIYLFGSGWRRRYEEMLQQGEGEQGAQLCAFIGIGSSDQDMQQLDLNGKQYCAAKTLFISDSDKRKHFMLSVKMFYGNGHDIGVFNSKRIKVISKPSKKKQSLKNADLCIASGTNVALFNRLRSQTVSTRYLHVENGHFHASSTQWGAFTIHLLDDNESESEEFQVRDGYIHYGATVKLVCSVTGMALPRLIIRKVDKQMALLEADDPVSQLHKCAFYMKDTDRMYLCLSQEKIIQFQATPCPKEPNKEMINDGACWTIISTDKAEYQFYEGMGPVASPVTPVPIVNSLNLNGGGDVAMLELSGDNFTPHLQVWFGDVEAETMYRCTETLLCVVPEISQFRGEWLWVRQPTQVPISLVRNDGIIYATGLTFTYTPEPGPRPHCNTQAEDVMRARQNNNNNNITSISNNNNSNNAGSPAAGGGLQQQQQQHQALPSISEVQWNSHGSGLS

Biological target: SMT3–Hairless NTCT fusion protein (residues 232–358) (Drosophila melanogaster) (UniProt Q02308)
Assay: ITC

stoichiometry N: 0.9
Substance: Su(H) NH-CTD (amino acids 101–119 + 415–523) (from UniProt P28159) (domain or fragment)
